The nature of test [1]: Protective index was determined as ratio of TD50 to ED50(MES method). Type of test: functional.
The nature of test [2]: Protective index was determined as ratio of TD50 to ED50(scMET method). Type of test: functional.

Molecules are shown by their SMILES.

Take `CCC1(c2ccccc2)NC(=O)N(C)C1=O` (configuration not stated) [MEPHENYTOIN]: the PI in test [1] came out at 2.5; in test [2], 5.

(Values after ChEMBL document CHEMBL1125842, “Synthesis and anticonvulsant activity of 2-iminohydantoins” (J Med Chem, 1991).)
